The test system of the series is U87MG astrocytes. In words: U87MG cell viability. The settings on record: 24 hours, MTT.

Molecules are shown by their SMILES.

As to `O=C1Nc2cc(Br)ccc2C1=C1Nc2ccccc2C1=NO`, the cellular viability entry was “increase in cellular viability” (0.1 μM), “substantially no effect on cellular viability” (1.0 μM) and 56% (10 μM).
